Ab-14 light chain CDR variants: yeast mating affinities

From the AlphaSeq antibody data of Li et al. 2023 (doi:10.1038/s41467-023-39022-2), copy in the FLAb collection.

Antigen: PDVDLGDISGINAS, a 14-residue peptide of the SARS-CoV-2 spike HR2 region.

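Phage display of a naive human antibody library on the peptide gave the parent. The variants were designed computationally from a first round of random CDR variants and then made and measured. Their group label is 14L_GP_Gibbs (GP: Gaussian process model; Gibbs: Gibbs sampling; a sequence that several methods proposed may carry one label only). The scFvs were displayed on barcoded MATa yeast, the peptide on MATalpha yeast. The frequency of each diploid, read from paired DNA barcodes, reflects how well the two displayed proteins bind. The ratio of observed to expected reads was calibrated, replicate by replicate, on BCL2-family standards whose Kd was known from biolayer interferometry. Each pool was mated in six replicate cultures.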

The variants keep the heavy chain, the linker and the frameworks of Ab-14 (scFv order VH, a 15-residue (Gly4Ser)3 linker, VL).
VH: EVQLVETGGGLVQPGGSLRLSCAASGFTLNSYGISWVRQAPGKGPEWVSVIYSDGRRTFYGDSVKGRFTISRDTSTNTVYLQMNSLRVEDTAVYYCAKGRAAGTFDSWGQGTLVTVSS
VL: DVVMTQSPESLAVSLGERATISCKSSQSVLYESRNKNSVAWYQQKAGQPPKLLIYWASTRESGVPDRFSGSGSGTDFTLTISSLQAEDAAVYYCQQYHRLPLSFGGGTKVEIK

Variants are written as CDR1, CDR2 and CDR3 of the light chain (limits as in the source). Parent: KSSQSVLYESRNKNSVA, WASTRES, QQYHRLPLS. Numbers give log10(Kd / nM), so 0 is 1 nM and 3 is 1 µM. Smaller is tighter. "n.d." means that the variant was in the library but no mating with the target was seen in that replicate; the authors take this as a sign of poor binding, and no number exists. A sequence measured in both rounds can read differently, since the two assays cover different ranges. Background: pairings of all light chain designs with three empty control strains gave a value in 4% of cases (median 2.64, 5th percentile 1.59). Values in that range, when seen in few replicates, are hard to tell from nonspecific mating. Also given: how often the same scFv was detected with the empty control strains, with their mean in brackets. Of ten entries with the parent sequence, four were seen in most replicates (averages 0.34 to 2.37), three in one and three in none, so single entries are noisy. In the paper, a design with two or fewer of six values counts as a poor binder.

CDR-L1	CDR-L2	CDR-L3	log10 Kd (nM) by replicate	control signals
KSSQSYDYEDRNQNSVA	NASQREH	QQYHRLPLS	0.06 / -0.13 / -0.09 / -0.19 / -0.11 / 0.00	2/18 (2.56)
KYSQSQGYESRNKWSVA	NASTRES	QQYHRLPLS	0.22 / 0.25 / 0.19 / 0.21 / 0.06 / 0.27	0/18
KLVMSELYESRQKNSVA	GASQRES	QQYHRLPLS	0.17 / 0.03 / -0.25 / -0.07 / -0.17 / 0.24	2/18 (3.83)
KMSQSNDYESRNSNAVA	NASQREM	QQYHRLPLS	0.26 / 0.09 / 0.02 / 0.02 / 0.04 / 0.23	2/18 (2.42)
KISQSVGYESRNKNSVA	NASQRMQ	QQYHRLPLS	-0.13 / -0.36 / -0.34 / -0.51 / -0.28 / -0.22	3/18 (2.48)
KLPQSWLYESQNSNSVA	HASQRME	QQYHRLPLS	0.04 / -0.14 / 0.01 / -0.20 / -0.15 / 0.01	1/18 (2.04)
KWEYSVLGEQRNKNAVA	SASQREQ	QQYHRLPLS	n.d. / n.d. / n.d. / n.d. / n.d. / n.d.	0/18
KCQGSQLYESRNKNAVA	NASTRED	QQYHRLPLS	0.15 / -0.15 / -0.29 / -0.36 / -0.05 / -0.09	0/18
KLMPSEWYESRMCNSVA	NASVREQ	QQYHRLPLS	0.68 / 0.20 / 0.37 / 0.10 / 0.50 / 0.48	1/18 (2.64)
VLSQSWLYEDRPKNSVA	NASTRMQ	QQYHRLPLS	-0.17 / -0.19 / -0.31 / -0.32 / -0.16 / -0.05	2/18 (3.54)
KLSTSVLYGKRNKNSVA	QASQRES	QQYHRLPLS	0.20 / 0.14 / 0.30 / 0.12 / 0.66 / 0.59	1/18 (2.61)
KISCSSLYDDANKNSVA	NASTRLS	QQYHRLPLS	0.35 / 0.49 / 0.27 / -0.05 / 0.48 / 0.29	1/18 (2.15)
KVQQLGCMLSRNKNSVA	HASTRES	QQYHRLPLS	0.62 / 1.06 / 0.48 / 0.55 / 0.94 / 0.52	2/18 (2.51)
KMSQSQPYESRMSNAVA	NASYRMS	QQYHRLPLS	0.43 / 0.38 / 0.17 / 0.29 / 0.45 / 0.27	0/18
KLEWQQLYWSRNSNSVA	NASTREE	QQYHRLPLS	-0.24 / -0.34 / -0.36 / -0.54 / -0.39 / -0.14	0/18
KSDQSELEEQRNKNSVA	SASTRLS	QQYHRLPLS	n.d. / n.d. / n.d. / n.d. / n.d. / n.d.	0/18
KVQQSWLYESRNINNVA	NASKRES	QQYHRLPLS	-0.14 / 0.02 / -0.13 / -0.28 / -0.32 / -0.16	0/18
KVQQSVPYEDRNKNSVA	HASTRSS	QDYHRLPLS	-0.12 / 0.01 / 0.04 / -0.18 / -0.18 / -0.03	1/18 (2.27)
KLSQQNLYESRNKNSVA	NASQRLS	QQYHRLPLS	-0.47 / -0.49 / -0.15 / -0.51 / 0.25 / -0.35	0/18
KFMGSHLYESRMENSVA	NASQRES	QQYHRLPLS	0.65 / 0.52 / 0.37 / 0.49 / 0.46 / 0.34	0/18
KQSCGELYGSRNKNSVA	DASQREE	QQYHRLPLS	0.31 / -0.13 / -0.05 / -0.04 / 0.58 / 0.34	1/18 (3.49)
KWQQSDDLESRNHNSVA	HASTRCS	QQYHRLPLS	1.00 / 0.55 / 0.57 / 0.54 / 0.53 / 0.75	1/18 (1.86)
KVSISWLMSSRNKNQVA	HASTRMS	QQYHRLPLS	n.d. / 4.25 / n.d. / 1.33 / 2.06 / 3.66	2/18 (2.70)
KMQGSVMMLSRNCNSVA	QASTREQ	QQYHRLPLS	0.58 / 0.61 / 0.26 / 0.17 / 0.41 / 0.77	1/18 (3.07)
KLMGSMLYEQRMKNSVA	QASQRMS	QQYHRLPLS	0.86 / 0.27 / 0.53 / 0.45 / 0.80 / 0.77	0/18
KAEGSWLYESRNKNSVA	NASMRES	QQYHRLPLS	-0.52 / -0.41 / -0.76 / -0.88 / -0.75 / -0.47	0/18
KISQSQLGESRNVNSVA	NASTRLS	QQYHRLPLS	-0.22 / 0.06 / -0.05 / -0.17 / -0.01 / -0.17	0/18
KCDQSWDYESRNKNNVA	NASQRES	QQYHRLPLS	0.03 / -0.10 / -0.32 / -0.28 / -0.47 / -0.19	0/18
KVEQKVMMGSRNKNSVA	HASVREQ	QQYHRLPLS	0.55 / 0.70 / 0.42 / 0.60 / 0.66 / 0.89	1/18 (3.37)
KLPQSAEYQSRNKNSVA	SASTREA	QQYHRLPLS	-0.03 / 0.16 / -0.07 / -0.05 / -0.03 / 0.08	0/18
FVSQSQLYESRNKNSVA	NGSTRES	QDYHRLPLS	-0.06 / -0.25 / -0.22 / -0.54 / -0.32 / -0.21	1/18 (2.47)
KLDQSVGYESRNKNNVA	EGSQRES	QQYHRLPLS	-0.59 / -0.58 / -0.81 / -0.89 / -0.90 / -0.76	0/18
KLQWSHLYGSRNKNSVA	HASQRES	QCYHRLPLS	1.15 / 1.44 / 1.35 / 1.27 / 1.06 / 1.58	0/18
KVSPEMEYSSRNKASVA	HASTRES	QQYHRLPLS	1.72 / 1.71 / 1.52 / 2.47 / 2.01 / 1.82	0/18
KFQQSQLYESRNMNSVA	NASQRMQ	QQYHRLPLK	0.60 / 0.56 / 0.35 / 0.39 / 0.44 / 0.65	1/18 (3.12)
KLSMSQLYESRNKNNVA	SASHREH	QQYHRLPLS	0.44 / 0.29 / 0.31 / 0.34 / 0.41 / 0.31	2/18 (3.02)
KVQQSGGMLSRNKNSVA	DASTRES	QQYHRLPLS	-0.42 / -0.44 / -0.57 / -0.43 / -0.63 / -0.38	0/18
KVEPSVQGEQRNFNAVA	EASTREQ	QQYHRLPLS	0.01 / -0.02 / -0.16 / -0.25 / -0.02 / 0.10	0/18
KLSQSHLYESRNSNNVA	MASTRMV	QQYHRLPLS	0.15 / -0.19 / 0.05 / -0.25 / -0.26 / -0.03	0/18

From the list, the first 2 with no signal in any replicate:

{"CDR-L1": "KWEYSVLGEQRNKNAVA", "CDR-L2": "SASQREQ", "CDR-L3": "QQYHRLPLS", "log10 Kd (nM) by replicate": "n.d. / n.d. / n.d. / n.d. / n.d. / n.d.", "control signals": "0/18"}
{"CDR-L1": "KSDQSELEEQRNKNSVA", "CDR-L2": "SASTRLS", "CDR-L3": "QQYHRLPLS", "log10 Kd (nM) by replicate": "n.d. / n.d. / n.d. / n.d. / n.d. / n.d.", "control signals": "0/18"}